Reference: US6426231B1 (priority 1998, dated 2002)

Target: αHL-M113N (Staphylococcus aureus, UniProt P09616, G156S/I168L/K34A/M139N/N165Q/V150L)
Details: −40 mV, 1M NaCl, 10 mM Na phosphate, pH 7.5

heptakis-6-sulfato-β-cyclodextrin was tested, and the “g (conductance)” value was 40 ± 1 pS.
